Measurements published in ChEMBL document CHEMBL1914316, “Conversion of systemically-distributed triazole-based stearoyl-CoA desaturase (SCD) uHTS hits into liver-targeted SCD inhibitors” (Bioorg Med Chem Lett, 2011).

Test system: Mus musculus
Experiment: Ratio of drug uptake in liver to harderian glands of C57BL/6 mouse at 10 mg/kg, po after 6 hrs
Conditions: in vivo

Row | Compound | Ratio
1 | O=C(O)Cn1nnc(-c2cncc(-c3cn(Cc4cc(Br)c(Br)c(Br)c4)nn3)c2)n1 | > 94
2 | O=C(O)Cn1nnc(-c2cnc(-c3cn(Cc4cc(Cl)c(Cl)c(Cl)c4)nn3)s2)n1 | > 66
